# Values of other authors in US4897502A, “Process for making solid polyhalotriaryl phosphate esters” (priority 1987, dated 1990).
# Conditions: Table I
substance,measurement,value
amyl alcohol [amyl alcohol (pract.)],Hildebrand Solubility Parameter,22.0 SI
